In paper PMC8315004, “Discovery of Small-Molecule Inhibitors of SARS-CoV-2 Proteins Using a Computational and Experimental Pipeline” (Frontiers in Molecular Biosciences, 2021):

Biological target: SARS-CoV-2 M^pro (Severe acute respiratory syndrome coronavirus 2, UniProt P0DTD1)
Assay: biochemical
Details: read-out: Normalized Percent FRET inhibition

In order of falling inhibition at 100 µM:
1. COc1cc([C@@H]2c3cc4c(cc3[C@@H](O[C@@H]3O[C@@H]5CO[C@@H](c6cccs6)O[C@H]5[C@H](O)[C@H]3O)[C@H]3COC(=O)[C@H]23)OCO4)cc(OC)c1O [Teniposide]  3.02%
2. CCC1=C[C@@H]2CN(C1)Cc1c([nH]c3ccccc13)[C@@](C(=O)OC)(c1cc3c(cc1OC)N(C)[C@H]1[C@@](O)(C(=O)OC)[C@H](OC(C)=O)[C@]4(CC)C=CCN5CC[C@]31[C@@H]54)C2 [Vinorelbine]  0.454%
3. Cc1nc(Nc2ncc(C(=O)Nc3c(C)cccc3Cl)s2)cc(N2CCN(CCO)CC2)n1 [Dasatinib]  -0.25%
4. CC(=O)N1CCN(c2ccc(OCC3COC(Cn4ccnc4)(c4ccc(Cl)cc4Cl)O3)cc2)CC1 (stereo not shown) [Ketoconazole]  -1.8%
